Drawing on ChEMBL document CHEMBL3112427, “Insights into the mechanism of streptonigrin-induced protein arginine deiminase inactivation” (Bioorg Med Chem, 2014), this text covers IC50 for one compound.

Amino acid sequences for entries named in this document (tags omitted).
UniProt Q9UM07, whole entry: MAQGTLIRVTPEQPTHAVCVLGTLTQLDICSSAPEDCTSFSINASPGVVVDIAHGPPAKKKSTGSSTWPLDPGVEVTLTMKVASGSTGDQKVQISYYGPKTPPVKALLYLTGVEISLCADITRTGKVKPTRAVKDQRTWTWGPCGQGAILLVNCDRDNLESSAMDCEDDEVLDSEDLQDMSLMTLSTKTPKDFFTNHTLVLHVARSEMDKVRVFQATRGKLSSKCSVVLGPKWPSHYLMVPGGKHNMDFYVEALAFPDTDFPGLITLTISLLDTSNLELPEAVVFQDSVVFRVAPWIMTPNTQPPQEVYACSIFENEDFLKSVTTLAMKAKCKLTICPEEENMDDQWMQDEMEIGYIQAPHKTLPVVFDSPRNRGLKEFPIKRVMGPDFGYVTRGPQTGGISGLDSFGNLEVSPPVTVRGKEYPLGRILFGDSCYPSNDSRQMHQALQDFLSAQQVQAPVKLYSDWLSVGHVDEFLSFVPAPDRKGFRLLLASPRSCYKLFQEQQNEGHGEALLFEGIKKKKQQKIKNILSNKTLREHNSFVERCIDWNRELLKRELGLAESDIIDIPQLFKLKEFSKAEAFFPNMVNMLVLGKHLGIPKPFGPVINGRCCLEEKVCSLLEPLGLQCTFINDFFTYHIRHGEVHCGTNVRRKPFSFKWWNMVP

The target of this experiment is Protein-arginine deiminase type-4 (Homo sapiens, UniProt Q9UM07). In words: Inhibition of recombinant wild-type PAD4 (unknown origin) using N-alpha-Benzoyl-L-arginine ethyl ester as substrate preincubated for 15 mins followed by substrate addition measured after 15 mins by COLDER assay.

Take `NC1=CC(=O)c2ccc(-c3cccc(C(=O)O)n3)nc2C1=O`: the IC50 (in general, the concentration needed to halve the response being measured) is 240 nM.
